Values quoted from earlier work in patent US20160367500A1 (FERTILIFY INC., priority 2013, published 2016).

vitamin D
Tolerable upper intake level (Health Canada suggested daily intake levels for females aged 19-50): 4,000 IU | tolerable upper limit of intake (humans, Health Canada Nutrition Tables (2013)): 4000 IU, per day
